The values below come from ChEMBL document CHEMBL3108756, “Evaluation of aminohydantoins as a novel class of antimalarial agents” (ACS Med Chem Lett, 2014).

The subject of the test is Plasmepsin IV (Plasmodium falciparum). The test can be described thus: Inhibition of Plasmodium falciparum plasmepsin-4 after 60 mins by fluorescence assay.

The source made the active and inactive calls. No cut-off for these calls is given here.

In the case of `COc1ccc(C2(c3ccc(OC)cc3)NC(=S)N(C3CCCCC3)C2=O)cc1`, the inhibition result is “inactive”.
